{"source": "patent US10016498B2", "about": "“D-amino acid derivative-modified peptidoglycan and methods of use thereof” (priority 2012, dated 2018)", "key": {"E. coli PG": {"system": "E. coli PG", "assay": "HPLC and mass spectrometry of muropeptides from purified PG", "assay_type": "cell-based, Escherchia coli", "conditions": "E. coli incubated in azDala alone"}, "C. glutamicum": {"system": "C. glutamicum", "assay": "norDala labeling detected with tetrazine-fluorescein", "conditions": "5 mM or 20 mM norDala, 10 uM tetrazine-fluorescein"}}}
{"compound": "[N-]=[N+]=NC[C@@H](N)C(=O)O", "values": [{"measurement": "fraction of D-alanine replaced with the synthetic analog, tetrapeptide pool", "setting": "E. coli PG", "value": "roughly 50%"}, {"measurement": "fraction of D-alanine replaced with the synthetic analog, total muropeptide population", "setting": "E. coli PG", "value": 15, "unit": "%"}]}
{"compound": "norbornene-D-alanine", "values": [{"measurement": "cell surface fluorescence after conjugation with tetrazine-fluorescein", "setting": "C. glutamicum", "value": "cell surface fluorescence"}]}
